Patent US7183445B2, “Cyclohexyl derivatives as selective estrogen receptor modulators” (Janssen Pharmaceutica N.V, priority 2004, dated 2007)
Several values for one entry are separate records, joined by “and”; a condition that tells them apart may be missing. Equal values may be shown once.

Amino acid sequences for entries named in this document (tags omitted).
UniProt P03372, whole entry: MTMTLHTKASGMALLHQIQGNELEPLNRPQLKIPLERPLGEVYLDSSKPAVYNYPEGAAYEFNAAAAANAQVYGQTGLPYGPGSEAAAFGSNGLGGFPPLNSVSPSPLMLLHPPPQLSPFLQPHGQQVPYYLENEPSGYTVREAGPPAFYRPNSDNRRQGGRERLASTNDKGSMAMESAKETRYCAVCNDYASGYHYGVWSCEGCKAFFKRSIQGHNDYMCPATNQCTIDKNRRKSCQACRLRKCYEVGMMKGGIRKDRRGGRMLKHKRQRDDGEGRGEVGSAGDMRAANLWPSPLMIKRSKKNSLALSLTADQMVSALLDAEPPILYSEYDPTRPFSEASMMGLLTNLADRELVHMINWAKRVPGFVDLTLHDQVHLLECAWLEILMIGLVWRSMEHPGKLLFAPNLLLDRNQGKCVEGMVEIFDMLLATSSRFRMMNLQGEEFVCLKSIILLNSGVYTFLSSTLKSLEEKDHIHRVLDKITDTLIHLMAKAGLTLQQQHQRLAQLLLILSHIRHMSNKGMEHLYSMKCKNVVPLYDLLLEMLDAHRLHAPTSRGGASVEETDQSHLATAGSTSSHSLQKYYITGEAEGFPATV
UniProt Q92731, whole entry: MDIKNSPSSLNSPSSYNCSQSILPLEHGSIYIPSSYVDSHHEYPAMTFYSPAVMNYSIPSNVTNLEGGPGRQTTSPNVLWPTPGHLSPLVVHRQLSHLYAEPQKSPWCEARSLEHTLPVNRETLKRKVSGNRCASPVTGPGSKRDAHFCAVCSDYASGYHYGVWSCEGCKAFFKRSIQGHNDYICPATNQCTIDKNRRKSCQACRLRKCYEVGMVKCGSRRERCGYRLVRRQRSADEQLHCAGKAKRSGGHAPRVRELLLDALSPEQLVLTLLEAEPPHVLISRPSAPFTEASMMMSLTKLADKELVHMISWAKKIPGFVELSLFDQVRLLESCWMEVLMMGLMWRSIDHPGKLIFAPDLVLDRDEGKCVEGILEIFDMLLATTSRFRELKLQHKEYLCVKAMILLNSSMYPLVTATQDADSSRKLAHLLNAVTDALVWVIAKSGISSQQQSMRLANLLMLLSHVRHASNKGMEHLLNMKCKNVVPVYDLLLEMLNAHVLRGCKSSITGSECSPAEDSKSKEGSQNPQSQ

Legend:
[1] = target: human estrogen receptor α (Homo sapiens, UniProt P03372); assay: Estrogen Receptor α Flash Plate Assay; details: read-out: ERα Binding IC50; displacement of radio-labeled estrogen, FlashPlate
Description: Estrogen Receptor α Flash Plate Assay
This assay monitors binding of radio-labeled estrogen to the estrogen receptor. It is performed on a BioMek 2000 (Beckman). Plates are read in a scintillation counter (Packard TopCount), with decreased counts an indication of binding of a compound to the receptor. The assay was run according to the procedure described by Allan, et al., Anal. Biochem. (1999), 275(2), 243–247.
On day one, 100 μL of Estrogen Screening Buffer (ESB, Panvera) containing 5 mM dithiothreitol (DTT, Panvera), 0.5 μg mouse anti-estrogen receptor monoclonal antibody (SRA-1010, Stressgen) and 50 ng purified human estrogen receptor α (Panvera) were added to each well of a 96 well FlashPlate Plus plate crosslinked with goat anti-mouse antibodies (NEN Life Sciences). The plate was sealed and incubated at 4° C. overnight.
On day two, each well was washed three times with 200 μL PBS, pH 7.2, at room temperature. To each well was then added 98 μL radio-labeled estrogen (0.5 nM, which equals 6 nCi for a 120 Ci/mmol batch, Amersham), diluted in ESB and 5 mM dithiothreitol (DTT). To individual wells were then added 2.5 μL test compound diluted in 30% (v/v) dimethyl sulfoxide/50 mM HEPES, pH 7.5. The wells were mixed three times by aspiration, the plate sealed and incubated at room temperature for one hour. The wells were then counted for 1 min in a TopCount scintillation counter (Packard). […]

[2] = target: hER-β (Homo sapiens, UniProt Q92731); assay: Estrogen Receptor β Fluorescence Polarization Assay; details: read-out: ERβ Binding IC50; displacement of Fluormone ES2, fluorescence polarization
Source text: Estrogen Receptor β Fluorescence Polarization Assay
This assay monitors binding of a fluorescent analog of estrogen (Fluormone ES2, Panvera) to the estrogen receptor. Plates are read in a fluorometer that can be set to polarization mode. A decrease in […] relative to vehicle control is an indication of binding of a compound to the receptor.
It is crucial to avoid introduction of air bubbles into the reaction in each well of the 96 well plate throughout this procedure. (Bubbles on the surface of the reaction disrupt light flow, affecting the polarization reading.) However, it is also crucial to effectively mix the reaction components upon addition to the well.
On ice, a 2× standard mixture of Assay Buffer (Panvera), 10 nM DTT and 40 nM ES2 was prepared. On ice, a 2× reaction mixture of Assay Buffer (Panvera), and 20 nM hER-β (Panvera) and 40 nM ES2 was also prepared.
Dilutions of test compound were prepared in 30% (v/v) dimethyl sulfoxide/50 mM HEPES, pH 7.5. At this point, the dilutions were 40× the final required concentration.
The standard mixture at 50 μL was then added to each well. The reaction mixture at 48 μL was added to all wells. The compound dilution at 2.5 μL was added to the appropriate wells. […]
Each well on the plate was then read in an LjL Analyst with an excitation wavelength of […] and an emission wavelength of 538. […]

[3] = test system: MCF-7 cells; assay: MCF-7 Cell Proliferation Assay; details: 14C-thymidine incorporation; for EC50: read-out: MCF7 Agonist EC50, agonist mode; for IC50: read-out: MCF7 Antagonist IC50, antagonist mode, 10 nM 17β-estradiol added
Description: MCF-7 Cell Proliferation Assay
This assay was run according to the procedure described by Welshons, et al., (Breast Cancer Res. Treat., 1987, 10(2), 169–75), with minor modification.
Briefly, MCF-7 cells (from Dr. C. Jordan, Northwestern University) were maintained in RPMI 1640 phenol red free medium (Gibco) in 10% FBS (Hyclone), supplemented with bovine insulin and non-essential amino acid (Sigma). The cells were initially treated with 4-hydroxytamoxifen (10^−8 M) and let stand at 37° C. for 24 hours. Following this incubation with tamoxifen, the cells were treated with compounds at various concentrations.
Compounds to be tested in the agonist mode were added to the culture media at varying concentrations. Compounds to be treated in the antagonist mode were prepared similarly, and 10 nM 17β-estradiol was also added to the culture media. The cells were incubated for 24 hours at 37° C. Following this incubation, 0.1 μCi of ^14C-thymidine (56mCi/mmol, Amersham) was added to the culture media and the cells were incubated for an additional 24 hours at 37° C. The cells were then washed twice with Hank's buffered salt solution (HBSS) (Gibco) and counted with a scintillation counter. The increase in the ^14C-thymidine in the compound treated cells relative to the vehicle control cells were reported as percent increase in cell proliferation.
(§1) Representative compound of the present invention were tested according to the procedure described in Examples 14 and 15 above, with results as listed in Table. 7.

[4] = test system: Human Endometrial Ishikawa Cells; assay: Alkaline Phosphatase Assay in Human Endometrial Ishikawa Cells; details: alkaline phosphatase activity, 3 days; for EC50: read-out: Ishikawa Agonist EC50, agonist mode; for IC50: read-out: Ishikawa Antagonist IC50, antagonist mode, 10 nM 17β-estradiol added
Description: Alkaline Phosphatase Assay in Human Endometrial Ishikawa Cells
This assay was run according to the procedure described by Albert et a., Cancer Res, […], 50(11), 330-6-10, with minor modification.
Ishikawa cells (from ATCC) were maintained in DMEM/F12 (1:1) phenol red free medium (Gibco) supplemented with 10% calf serum (Hyclone). 24 hours prior to testing, the medium was changed to DMEM/F12 (1:1) phenol red free containing 2% calf serum.
Compounds to be tested in the agonist mode were added to the culture media at varying concentrations. Compounds to be treated in the antagonist mode were prepared similarly, and 10 nM 17β-estradiol was also added to the culture media. The cells were then incubated at 37° C. for 3 days. On the fourth day, the media was remove, 1 volume of 1× Dilution Buffer (Clontech) was added to the well followed by addition of 1 volume of Assay Buffer (Clontech). The cells were then incubated at room temperature for 5 minutes. 1 volume of freshly prepared Chemiluminescence Buffer (1 volume of chemiluminescent substrate (CSPD) in 19 volume Chemiluminescent Enhancer with final concentration of CSPD at 1.25 mM; Sigma Chemical Co.) was added. The cells were incubated at room temperature for 10 minutes and then quantified on a luminometer. The increase of chemiluminescence over vehicle control was used to calculate the increase in alkaline phosphatase activity.
as §1

| Structure (SMILES) | IC50 [1] | IC50 [2] | EC50 [3] | IC50 [3] | EC50 [4] | IC50 [4] |
| --- | --- | --- | --- | --- | --- | --- |
| CCOC(=O)C1CC=C(c2ccc(F)cc2)C(Cc2ccc(OCCN3CCCCC3)cc2)C1C (stereo not drawn) | 4.5 µM | > 10 µM | > 10 µM | > 10 µM | > 10 µM | 7 µM |
| CCOC(=O)C1CC=C(c2ccc3[nH]ccc3c2)C(Cc2ccc(OCCN3CCCCC3)cc2)C1C (stereo not drawn) | 0.045 µM | > 10 µM and 8 µM | > 10 µM | 5 µM | > 10 µM | 2.7 µM |
